Results reported in publication PMC5587394.

Assays:
FGF9 (Homo sapiens) = FGF9 (Homo sapiens) (UniProt P31371); experiment: sedimentation equilibrium ultracentrifugation; conditions: cited from earlier work
FGFR1c (Homo sapiens) = FGFR1c (Homo sapiens) (UniProt P11362); conditions: cited from earlier work
[1] = target: FGF9^WT (human FGF9, residues 35-208) (human) (UniProt P31371); experiment: SEC-MALS

Row | stoichiometry N [1] | Substance | Kd (FGF9 (Homo sapiens)) [nM] | Kd (FGFR1c (Homo sapiens)) [nM]
1 | – | FGF9 (from UniProt P31371) | 680 | 890
2 | 2 | FGF9^WT (human FGF9, residues 35-208) (from UniProt P31371 35-208) (ligand) | – | –
